# Binding of CDR-mutated scFvs to a peptide of the spike HR2 region

From the AlphaSeq antibody data of Li et al. 2023 (doi:10.1038/s41467-023-39022-2), copy in the FLAb collection.

Binding partner: SARS-CoV-2 spike HR2 peptide, sequence PDVDLGDISGINAS.

Parent scFv Ab-14: VH joined to VL by three GGGGS repeats. Changes lie in the heavy chain CDRs alone.
VH: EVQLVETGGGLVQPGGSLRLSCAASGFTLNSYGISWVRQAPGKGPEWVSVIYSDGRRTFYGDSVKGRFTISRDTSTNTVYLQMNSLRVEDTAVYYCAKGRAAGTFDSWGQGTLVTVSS
VL: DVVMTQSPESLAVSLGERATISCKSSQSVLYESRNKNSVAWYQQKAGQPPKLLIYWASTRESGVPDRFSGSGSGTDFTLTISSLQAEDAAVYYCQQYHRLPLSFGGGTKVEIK

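The variants were designed computationally from a first round of random CDR variants and then made and measured. Group labels follow the data file (Ctrl: baseline library sampled from a position-specific scoring matrix, with some repeated check sequences; Rand: our label for a block that the file lists under HC and that is probably the random mutants of the ten best first-round binders; En: ensemble of fine-tuned language models; GP: Gaussian process model; GPLM: also part of the Gaussian process libraries; HC: hill climbing; Gen: genetic algorithm; Gibbs: Gibbs sampling; a sequence that several methods proposed may carry one label only). AlphaSeq pools MATa yeast showing the antibodies with MATalpha yeast showing the peptide. Binding brings cells together so that they mate, and sequencing counts the barcode pairs among the diploids. Read counts were normalised to the haploid input and turned into Kd by a linear fit to BCL2-family pairs of known affinity, for each replicate. Mating was done six times.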

Each variant is given by its three heavy chain CDRs, as the data file delimits them; those of the parent are GFTLNSYGIS, VIYSDGRRTFYGDSVK, GRAAGTFDS. Values are apparent Kd, the geometric mean of the replicates that gave a signal; lower means stronger binding. Where no diploid with the target was found in any replicate, the entry reads "not detected": below detection, most likely a poor binder, though not proof of it. The list is sorted by this average, lowest first, undetected variants last. Nonspecific signal, from three strains lacking the peptide, appeared in 1% of pairings of all heavy chain designs, centred on 120 nM (5% of these signals below 7.0 nM); values are not corrected for it. Values of this round are not directly comparable with the first-round values of the same sequences. In the paper, a design with two or fewer of six values counts as a poor binder. A sequence that the file lists under several names has all its replicates pooled.

| # | CDR-H1 | CDR-H2 | CDR-H3 | group | Kd | replicates with signal |
|---|---|---|---|---|---|---|
| 1 | GFDLNEYGIS | VIYADGRRTFYVDSVK | GEAAGTFDS | En_HC | 79 pM | 6 of 6 |
| 2 | GFDLEEYGIS | VIYADGRRTFYSDSVK | GENAGTFDV | En_HC | 82 pM | 6 of 6 |
| 3 | GFELNEYGIS | VIYSDGRRTMYGDSVK | GRNAGTFDS | GP_Gibbs | 89 pM | 4 of 6 |
| 4 | GFDLDEYGIS | VIYADGRRTAYADSVK | GNNAGTFDL | En_Gen | 140 pM | 6 of 6 |
| 5 | GFSLNEYGIS | VIYSDGRRTFYADMVK | GTAAGTFDS | GP_Gibbs | 190 pM | 4 of 6 |
| 6 | GFDLNEYGIS | VIYADGRRTFYADSVK | GNEAGTFDQ | En_HC | 190 pM | 6 of 6 |
| 7 | GFNLDEYGIS | VIYADGRRTFYSNSVK | GEAAGTFDV | En_HC | 250 pM | 6 of 6 |
| 8 | GFDLNEYGIS | VIYADGSRTAYSDSVK | GGNAGTFDV | En_Gen | 270 pM | 6 of 6 |
| 9 | GFDLNEYGIS | VIYADGRRTAYADKVK | GNVAGTFDV | En_Gen | 310 pM | 6 of 6 |
| 10 | GFDLDEYGIS | VIYADGMRTFYADSVK | GNIAGTFVS | En_HC | 320 pM | 6 of 6 |
| 11 | GFDLNEYGIS | VIYADGRRTAYIDSVK | GEIAGTFDM | En_HC | 390 pM | 6 of 6 |
| 12 | GFTLNSYGIS | VIYADGRRTFYGDSVK | GKAAGTFDV | GPLM_Gen | 420 pM | 6 of 6 |
| 13 | GFDLNSYGIS | VIYSDGKRTFYDDSVK | GRTAGTFDS | GP_Gen | 470 pM | 6 of 6 |
| 14 | GFDLNEYGIS | VIYADGIRTQYIDSVK | GNEAGTFDT | En_HC | 590 pM | 6 of 6 |
| 15 | GFDLNEYGIS | VIYSDGRRTFYGDSVK | GRAAGTFDD | GP_HC | 740 pM | 6 of 6 |
| 16 | GFSLNEYGIS | VIYSDGRRTFYGDAVK | GRTAGTFDN | GP_Gibbs | 780 pM | 6 of 6 |
| 17 | GFSLNSYGIS | VIYADGRRTFYGDSVK | GRAAGTFDS | Ctrl+GPLM_Gen | 1.2 nM | 12 of 12 |
| 18 | GFTLNRYGIS | VIYSDGRRTFYSDSVK | GRLAGTFDT | GP_HC | 1.2 nM | 6 of 6 |
| 19 | GFDLNSYGIS | VIYSDGRRTFYVDSVK | GRNAGTFDT | GP_Gen | 1.2 nM | 6 of 6 |
| 20 | GFDLNSYGIS | VIYSDGRRTFYSDSVK | GEAAGTFDS | GPLM_Gen | 1.3 nM | 6 of 6 |
| 21 | GFDLDEYGIS | VIYADGQRTAYTDSVK | GENAGTFDL | En_Gen | 1.4 nM | 6 of 6 |
| 22 | GFDLNEYGIS | VIYADGKRVAYADSVK | GNVAGTFDV | En_Gen | 1.5 nM | 4 of 6 |
| 23 | MFSLNEYGIS | VIYSDGKRTFYGDSVK | GRTAGTFDS | GP_Gen | 1.9 nM | 4 of 6 |
| 24 | GFDLNSYGIS | VIYSDGRRTAYGDSVK | GRAAGSFDS | GPLM_HC | 1.9 nM | 6 of 6 |
| 25 | GFDLNSYGIS | VIYSDGRRTFYGDRVK | GQEAGTFDS | GP_Gen | 2.0 nM | 6 of 6 |
| 26 | GFTLDSYGIS | VIYSDGRRTFYGDSVK | GREAGTFDS | GPLM_Gen | 2.1 nM | 5 of 6 |
| 27 | GFTLNEYGIS | VIYSDGRRTFYGDSVR | GEAAGTFDS | Ctrl | 2.7 nM | 6 of 6 |
| 28 | GFTLNEYGIS | VIYSDGRRTFYGDSVK | GQAAGTFDK | GPLM_Gen | 2.9 nM | 6 of 6 |
| 29 | GFTLNSYGIS | VIYSDGRRTFYTDSVK | GVEAGTFDS | GPLM_HC | 3.0 nM | 6 of 6 |
| 30 | GFTLNEYGIS | VIYSDGRRTFYTDSVK | GAFAGTFDS | Rand | 3.2 nM | 6 of 6 |
| 31 | GFHLNSYGIS | VIYSDGRRTFYADSVK | GKVAGTFDS | GPLM_Gibbs | 3.5 nM | 6 of 6 |
| 32 | GFGLNSYGIS | VIYSDGRRTFYADSVK | GHAAGTFDS | GPLM_Gen | 3.9 nM | 6 of 6 |
| 33 | GFELNSYGIS | VIYSDGRRTFYSDSVK | GDAAGTFDS | Ctrl+GPLM_Gibbs | 4.0 nM | 12 of 12 |
| 34 | GFDLEDMGVS | VIYADGIRFAYHQKVK | GQAAGTFDL | En_Gibbs | 4.8 nM | 5 of 6 |
| 35 | GFTLNDYGIS | VIYSDGRRTFYTDAVK | GRFAGTFDS | GPLM_HC | 9.1 nM | 6 of 6 |
| 36 | GFDLNEYGIS | VIYADGRRTAYLDSVK | GEAAGTFDE | En_HC | 9.3 nM | 6 of 6 |
| 37 | GFTLNSYGIS | VIYSDGQRTFYGDSVK | GRTAGTFDT | GPLM_Gibbs | 9.8 nM | 6 of 6 |
| 38 | GFDLNSYGIS | VIYSDGRRTFYSDSVK | GNAGGTFDS | GP_HC | 12 nM | 6 of 6 |
| 39 | GFDLNSYGIS | VIYSDGRRTFYSDSVK | GRNAGTFDS | GPLM_HC | 16 nM | 5 of 6 |
| 40 | GFHLEEYGIS | VIYSDGRREFYGDSVK | GRAAGTFVS | Ctrl | 17 nM | 6 of 6 |
| 41 | GFNLEEYGIS | VIYADGFRASYQDKVK | GQNGSVVLR | En_Gibbs | 17 nM | 1 of 6 |
| 42 | GFSIDEYGIS | VIYADGLRQHYANAVK | GEGAGTFDT | En_Gibbs | 22 nM | 6 of 6 |
| 43 | GFELNSYGIS | VIYSDGRRTFYGDSVK | GNTAGTFDE | GP_Gibbs | 23 nM | 5 of 6 |
| 44 | GFALNSYGIS | VIYSDGRRTFYIDSVK | GRVAGTFDS | GP_Gibbs | 30 nM | 6 of 6 |
| 45 | GFSLNSYGIS | VIYSDGRRTFYDDSVK | GKQAGTFDS | GP_Gen | 65 nM | 4 of 6 |
| 46 | GFELDEYGIS | VIYADGARTAYVDNVK | GDAVGDFHV | En_Gibbs | 69 nM | 1 of 6 |
| 47 | GFTINSYGIS | VIYSDGRRTFYSDSVK | GTAAGTFDS | GPLM_HC | 72 nM | 5 of 6 |
| 48 | GFTLNQYGIS | VIYSDGRRTFYGPSVK | GKAAGTFDS | Ctrl | 75 nM | 5 of 6 |
| 49 | GFTLNSYGIS | VIYSDGRRTFYHDSVK | GESAGTFDS | Ctrl | 180 nM | 5 of 6 |
| 50 | GNTLNSYGIS | VIYSDGRRTFYRDSVK | GRAAGTFDS | Ctrl | 410 nM | 3 of 6 |
| 51 | GFNLNSYGIS | VIYSDGRRTFYGDRVK | GWTAGTFDS | GP_Gibbs | not detected | 0 of 6 |
| 52 | GFTLNSYGIS | VIYSDGRRTFYSDSVK | GRAALFFDS | Ctrl | not detected | 0 of 6 |
| 53 | GFTLNEYGIS | VIYSDGRRTFYTDSVK | GRLAGTFVS | GP_HC | not detected | 0 of 6 |
| 54 | GESLEEYGIS | VIYADGMRNAYQSKVK | GTNSGDFTI | En_Gibbs | not detected | 0 of 6 |
| 55 | GFTLNSYGIS | VIYSDGRRTAYGDSVK | RRAAGTFDS | Ctrl | not detected | 0 of 6 |
| 56 | GHTLNSYSIS | VIYSDGRRTFYSDSVK | GRAGGTFDS | Rand | not detected | 0 of 6 |
| 57 | GFTCNEEGIS | VIYSDGRRRKYGDSVK | GRAAVTFDQ | Rand | not detected | 0 of 6 |
| 58 | QFTLNSYGIS | VIHADGRRTFYGDSVK | GRAAGTNKS | Rand | not detected | 0 of 6 |
| 59 | GFTLNSYGIS | VIYSDGRRTFYIDSFK | GRAAGTFDS | Ctrl | not detected | 0 of 6 |
| 60 | GFNLEEYGIS | VIYADGKRTFYIDAVK | GTWGVFGLG | En_Gibbs | not detected | 0 of 6 |
| 61 | GFTLNSYGIS | VIYSDGRRTFYSDSVK | GRAVGTFDT | GP_HC | not detected | 0 of 6 |
| 62 | GYSLEDYGIS | VIYADGRRTAYAADVK | GQGTNVVAG | En_Gibbs | not detected | 0 of 6 |
| 63 | GFTLNDYGIS | VIYSDGRRTFYGDSVK | GRAAGTFTS | GPLM_HC | not detected | 0 of 6 |
| 64 | GFDLNEYGIS | VIYADGMRRAYAQNFK | GVTGGGLHI | En_Gibbs | not detected | 0 of 6 |
| 65 | GFTLNSYGIS | VIYADGRRTFYNDSVK | GRAADTFDS | Ctrl | not detected | 0 of 6 |
| 66 | GFTLNDYPIS | VIYSDGRRTQYIDSVK | ETAAGTFDS | Rand | not detected | 0 of 6 |
| 67 | GFNLDEYGIS | VIYADGTRRYYADNVK | GDYVYVNST | En_Gibbs | not detected | 0 of 6 |
| 68 | GFTLNSYGIS | VIYSDGRRTFYLDSVK | GTAAGTFDS | Ctrl | not detected | 0 of 6 |
| 69 | GFTLSSYGIS | VIYSDGRRTFYGDSVA | VRAAGLFDS | Ctrl | not detected | 0 of 6 |
| 70 | GFTLNSYGIS | VIYSDGRREWYGDSVK | GRAAGTFKS | Ctrl | not detected | 0 of 6 |
| 71 | GFTINSYGIS | VIYSDGKRTFYGDSVK | GQAAGTFLS | Ctrl | not detected | 0 of 6 |
| 72 | RFTLNSYGIS | VIYSDGRRTFYGDSVK | GRAAGTFDS | Ctrl | not detected | 0 of 6 |
| 73 | GFTRNSYGIS | VIYSDGRRTFYGDSVK | GQAAGTMDS | Ctrl | not detected | 0 of 6 |
| 74 | GFDLDEYGIS | VIYADGMRNAYTADVK | GGKSEDFFT | En_Gibbs | not detected | 0 of 6 |

From the list, the first 5 with no signal in any replicate:

| CDR-H1 | CDR-H2 | CDR-H3 | group | Kd | replicates with signal |
|---|---|---|---|---|---|
| GFNLNSYGIS | VIYSDGRRTFYGDRVK | GWTAGTFDS | GP_Gibbs | not detected | 0 of 6 |
| GFTLNSYGIS | VIYSDGRRTFYSDSVK | GRAALFFDS | Ctrl | not detected | 0 of 6 |
| GFTLNEYGIS | VIYSDGRRTFYTDSVK | GRLAGTFVS | GP_HC | not detected | 0 of 6 |
| GESLEEYGIS | VIYADGMRNAYQSKVK | GTNSGDFTI | En_Gibbs | not detected | 0 of 6 |
| GFTLNSYGIS | VIYSDGRRTAYGDSVK | RRAAGTFDS | Ctrl | not detected | 0 of 6 |